{
  "sequences": {"note": "The chains behind the UniProt entries cited, without tags or fusion partners. Residues count along the entry.", "UniProt P27815, 1-647 isoform 4": "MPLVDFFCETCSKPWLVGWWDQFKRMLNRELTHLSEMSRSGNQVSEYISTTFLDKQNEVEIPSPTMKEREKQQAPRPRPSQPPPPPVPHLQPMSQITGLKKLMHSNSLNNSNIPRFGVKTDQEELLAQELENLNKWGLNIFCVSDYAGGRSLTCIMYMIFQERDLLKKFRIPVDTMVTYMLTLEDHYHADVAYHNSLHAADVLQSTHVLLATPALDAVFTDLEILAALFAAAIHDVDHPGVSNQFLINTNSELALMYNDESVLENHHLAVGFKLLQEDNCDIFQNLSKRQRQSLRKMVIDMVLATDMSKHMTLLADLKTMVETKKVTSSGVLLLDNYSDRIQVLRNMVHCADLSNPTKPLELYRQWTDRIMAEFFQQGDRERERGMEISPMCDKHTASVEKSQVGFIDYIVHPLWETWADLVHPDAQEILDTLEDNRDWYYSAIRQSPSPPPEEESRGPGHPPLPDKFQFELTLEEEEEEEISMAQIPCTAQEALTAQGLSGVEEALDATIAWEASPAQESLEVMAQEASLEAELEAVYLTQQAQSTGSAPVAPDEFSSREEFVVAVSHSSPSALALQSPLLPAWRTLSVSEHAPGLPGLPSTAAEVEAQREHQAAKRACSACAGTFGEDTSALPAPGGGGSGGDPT", "UniProt Q08499, 1-748 isoform 11": "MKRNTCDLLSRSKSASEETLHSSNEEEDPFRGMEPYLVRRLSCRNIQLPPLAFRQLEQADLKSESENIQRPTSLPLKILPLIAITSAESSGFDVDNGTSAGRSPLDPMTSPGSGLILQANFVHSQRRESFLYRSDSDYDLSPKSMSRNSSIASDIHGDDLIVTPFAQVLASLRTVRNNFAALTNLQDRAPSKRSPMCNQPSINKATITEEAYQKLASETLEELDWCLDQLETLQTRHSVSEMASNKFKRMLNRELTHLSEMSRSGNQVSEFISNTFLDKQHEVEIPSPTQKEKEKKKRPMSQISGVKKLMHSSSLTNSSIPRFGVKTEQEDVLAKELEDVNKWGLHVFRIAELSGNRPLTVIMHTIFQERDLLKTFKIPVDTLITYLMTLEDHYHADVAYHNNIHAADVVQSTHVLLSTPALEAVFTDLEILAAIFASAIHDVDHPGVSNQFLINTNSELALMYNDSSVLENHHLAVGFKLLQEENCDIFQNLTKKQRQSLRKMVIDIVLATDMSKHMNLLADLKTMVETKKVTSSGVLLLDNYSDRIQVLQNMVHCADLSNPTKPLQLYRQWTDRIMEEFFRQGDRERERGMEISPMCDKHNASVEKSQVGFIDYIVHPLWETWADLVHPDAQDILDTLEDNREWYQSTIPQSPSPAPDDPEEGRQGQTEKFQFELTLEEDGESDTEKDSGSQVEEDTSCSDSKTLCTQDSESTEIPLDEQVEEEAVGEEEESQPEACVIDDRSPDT", "UniProt Q13547, whole entry": "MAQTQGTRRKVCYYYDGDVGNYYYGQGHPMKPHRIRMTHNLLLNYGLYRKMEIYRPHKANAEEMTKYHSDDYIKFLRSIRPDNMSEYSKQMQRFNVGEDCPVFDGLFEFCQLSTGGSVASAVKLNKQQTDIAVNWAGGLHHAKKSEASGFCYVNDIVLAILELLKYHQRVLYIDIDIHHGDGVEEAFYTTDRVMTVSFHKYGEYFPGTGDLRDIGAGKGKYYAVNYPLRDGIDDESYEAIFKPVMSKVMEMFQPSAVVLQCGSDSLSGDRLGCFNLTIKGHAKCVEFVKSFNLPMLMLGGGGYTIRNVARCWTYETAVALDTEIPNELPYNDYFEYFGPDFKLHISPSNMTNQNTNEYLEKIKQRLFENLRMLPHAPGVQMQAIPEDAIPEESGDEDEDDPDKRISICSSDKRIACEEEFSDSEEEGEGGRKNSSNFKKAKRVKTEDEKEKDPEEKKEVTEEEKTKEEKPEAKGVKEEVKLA"},
  "source": "patent US9573956B2",
  "about": "“Compounds as dual inhibitors of phosphodiesterases and histone deacetylases” (FUNDACIÓN PARA LA INVESTIGACIÓN MÉDICA APLICADA, priority 2013, dated 2017)",
  "key": {"[1]": {"molecular_target": "PDE4A1 (Homo sapiens, UniProt P27815)", "test": "PDE enzyme activity assay (HTRF cGMP), PDE4A1", "format": "biochemical", "conditions": "read-out: PDE4A1 inhibition (IC50); recombinant enzyme"}, "[2]": {"molecular_target": "PDE4D7 (Homo sapiens, UniProt Q08499)", "test": "PDE enzyme activity assay (HTRF cGMP), PDE4D7", "conditions": "read-out: PDE4D7 inhibition (IC50); recombinant enzyme"}, "[3]": {"molecular_target": "HDAC1 (Homo sapiens, UniProt Q13547)", "test": "HDAC enzyme activity assay (fluorogenic substrate), HDAC1", "format": "biochemical", "conditions": "read-out: HDAC1 inhibition (IC50); recombinant enzyme"}},
  "note": "pIC50: −log10 of the molar value. This is a selection: effects in other tests are not listed, and their absence says nothing.",
  "data": [
    {"smiles": "COc1ccc(N(C(=O)c2c(Cl)cncc2Cl)C2CCN(CCCC(=O)NO)CC2)cc1OC1CCCC1", "values": [
      {"measurement": "pIC50", "setting": "[1]", "result": "< 5.00"},
      {"measurement": "pIC50", "setting": "[2]", "result": "< 5.00"},
      {"measurement": "pIC50", "setting": "[3]", "result": "5.00 to 6.00"}
    ]},
    {"smiles": "COc1ccc(N(C(=O)c2c(Cl)cncc2Cl)C2CCN(Cc3ccc(/C=C/C(=O)NO)cc3)CC2)cc1OC1CCCC1", "values": [
      {"measurement": "pIC50", "setting": "[1]", "result": "< 5.00"},
      {"measurement": "pIC50", "setting": "[2]", "result": "< 5.00"},
      {"measurement": "pIC50", "setting": "[3]", "result": "6.00 to 8.00"}
    ]}
  ]
}
